# What was measured:
# Amino acid sequences for entries named in this document (tags omitted). A change or cut given only in a name is not applied to a line headed by its entry.
# UniProt P36897: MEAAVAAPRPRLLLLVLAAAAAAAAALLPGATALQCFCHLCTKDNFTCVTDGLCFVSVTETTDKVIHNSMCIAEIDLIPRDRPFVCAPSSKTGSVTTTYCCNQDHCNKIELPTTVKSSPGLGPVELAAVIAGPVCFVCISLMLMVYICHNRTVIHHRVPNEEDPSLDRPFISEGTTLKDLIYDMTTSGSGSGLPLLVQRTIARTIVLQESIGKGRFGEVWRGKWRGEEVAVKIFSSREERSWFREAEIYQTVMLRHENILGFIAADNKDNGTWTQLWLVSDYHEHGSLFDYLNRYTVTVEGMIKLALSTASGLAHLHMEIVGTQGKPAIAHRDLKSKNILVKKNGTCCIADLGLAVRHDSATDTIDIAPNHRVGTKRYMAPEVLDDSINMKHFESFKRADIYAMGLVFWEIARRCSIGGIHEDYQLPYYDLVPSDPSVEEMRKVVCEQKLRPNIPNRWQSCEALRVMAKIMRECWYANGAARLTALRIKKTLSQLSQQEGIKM
# UniProt P36896: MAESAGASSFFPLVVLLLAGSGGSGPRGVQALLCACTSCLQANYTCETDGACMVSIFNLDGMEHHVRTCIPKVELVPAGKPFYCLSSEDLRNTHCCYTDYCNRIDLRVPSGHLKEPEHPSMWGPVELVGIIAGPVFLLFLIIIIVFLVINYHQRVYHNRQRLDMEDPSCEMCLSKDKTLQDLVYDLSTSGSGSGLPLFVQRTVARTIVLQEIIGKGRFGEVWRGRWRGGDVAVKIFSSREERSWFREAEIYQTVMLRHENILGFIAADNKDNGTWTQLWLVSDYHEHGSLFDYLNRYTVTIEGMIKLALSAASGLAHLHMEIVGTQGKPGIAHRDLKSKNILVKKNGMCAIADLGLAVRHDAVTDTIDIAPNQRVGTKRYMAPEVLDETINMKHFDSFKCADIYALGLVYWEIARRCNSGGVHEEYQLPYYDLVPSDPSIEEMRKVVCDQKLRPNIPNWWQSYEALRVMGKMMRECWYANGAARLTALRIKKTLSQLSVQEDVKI
# UniProt P53778: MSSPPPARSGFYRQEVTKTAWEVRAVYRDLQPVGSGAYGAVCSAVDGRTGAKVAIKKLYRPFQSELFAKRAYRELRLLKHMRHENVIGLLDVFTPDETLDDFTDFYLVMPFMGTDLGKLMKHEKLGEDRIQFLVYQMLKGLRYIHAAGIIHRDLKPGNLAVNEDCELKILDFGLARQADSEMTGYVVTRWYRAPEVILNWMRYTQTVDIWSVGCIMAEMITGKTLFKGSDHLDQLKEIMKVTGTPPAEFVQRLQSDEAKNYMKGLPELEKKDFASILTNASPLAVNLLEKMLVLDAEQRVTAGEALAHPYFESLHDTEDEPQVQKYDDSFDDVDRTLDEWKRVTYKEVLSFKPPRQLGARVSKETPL
# UniProt P02769: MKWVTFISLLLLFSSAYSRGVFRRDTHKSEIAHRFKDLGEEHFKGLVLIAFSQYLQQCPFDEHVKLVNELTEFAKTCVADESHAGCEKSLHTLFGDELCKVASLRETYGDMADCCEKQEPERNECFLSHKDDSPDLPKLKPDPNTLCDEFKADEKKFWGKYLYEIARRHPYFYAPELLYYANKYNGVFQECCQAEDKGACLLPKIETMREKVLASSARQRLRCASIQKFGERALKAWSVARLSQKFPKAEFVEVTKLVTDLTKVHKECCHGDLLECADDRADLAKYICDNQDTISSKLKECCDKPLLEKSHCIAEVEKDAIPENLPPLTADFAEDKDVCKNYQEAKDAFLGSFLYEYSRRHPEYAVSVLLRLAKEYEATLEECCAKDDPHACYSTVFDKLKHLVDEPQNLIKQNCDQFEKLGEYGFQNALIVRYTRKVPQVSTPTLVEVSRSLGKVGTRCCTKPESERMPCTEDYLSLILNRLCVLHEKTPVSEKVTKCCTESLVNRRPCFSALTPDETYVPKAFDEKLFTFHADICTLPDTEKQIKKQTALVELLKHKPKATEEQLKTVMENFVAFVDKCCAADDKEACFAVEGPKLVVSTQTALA
# [1] = biological target: ALK5 (kinase domain of the TGF-β type I receptor) (Homo sapiens, UniProt P36897); test: ^14C-FSBA affinity labeling detected by autoradiography; type: binding
# ALK4 = ALK4 (Homo sapiens, UniProt P36896); test: FSBA covalent modification and protection by competitors, followed by LC/MS; type: binding
# ALK5 = ALK5 (Homo sapiens, UniProt P36897); test: as above; type: binding
# CDK2 [2] = biological target: T1, CDK2 (Homo sapiens, UniProt P24941); test: as above; type: binding; conditions: for Mass Peak (relative percentage), FSBA-modified CDK2 peak: FSBA 10 μM alone
# P38γ = P38γ (Homo sapiens, UniProt P53778); conditions: unphosphorylated and phosphorylated forms; LC/MS; Fox et al. (1999); cited from earlier work
# BSA = BSA (Bos taurus, UniProt P02769); test: FSBA covalent modification followed by LC/MS; conditions: same conditions as for the kinases
# trypsin = test: FSBA covalent modification followed by LC/MS; conditions: same conditions as for the kinases
# CDK2 [3] = biological target: T1, CDK2; test: ^14C-FSBA affinity labeling detected by autoradiography; conditions: unheated; one hour at room temperature
# [4] = FSBA at room temperature, LC/MS
substance,measurement,setting,value
p-Flurosulfonylbenzoyl 5′-adenosine,^14C-FSBA labeling of ALK5 by autoradiography,[1]; ALK5 heated to 95° C. for 10 minutes before ^14C-FSBA,did not label heat-denatured ALK5
same,Cold competition with ^14C-FSBA binding to ALK5,"[1]; cold FSBA, autoradiography",competed with the binding of ^14C-FSBA to ALK5 kinase
same,^14C-FSBA labeling of ALK5 by autoradiography,"[1]; unheated ALK5, one hour at room temperature",labeled unheated ALK5
same,"Mass Peak (relative percentage), FSBA-modified ALK4 peak","ALK4; FSBA 10 μM alone, peak 35,459 Da","35,459 Da (100%)"
same,Time to complete covalent modification of ALK4 by FSBA,ALK4; [4],about 1 hour
same,"Mass Peak (relative percentage), FSBA-modified ALK5 peak","ALK5; FSBA 10 μM alone, peak 35,405 Da","35,405 Da (100%)"
same,Time by which the ALK5 parent peak was converted to the FSBA-modified peak,ALK5; [4],≤ 60 min
same,"Mass Peak (relative percentage), FSBA-modified CDK2 peak","CDK2 [2]; peak 33,404 Da (Table 2)","33,404 Da (100%)"
same,"Mass Peak (relative percentage), FSBA-modified CDK2 peak","CDK2 [2]; peak 34,404 Da (Table 1)","34,404 Da (100%)"
same,Time to complete covalent modification of CDK2 by FSBA,CDK2 [2]; [4],about 1 hour
same,Affinity labeling of P38γ by FSBA,P38γ,modified by FSBA
same,Covalent modification of BSA by FSBA,BSA,did not modify
same,Covalent modification of trypsin by FSBA,trypsin,did not modify
same,^14C-FSBA labeling of CDK2 by autoradiography,CDK2 [3],labeled

# Source: patent US20060234327A1, “Methods for identifying enzyme inhibitors and protein kinases” (priority 2003, published 2006)
